A short description of data set [1]: NAC plasma pharmacokinetics with or without probenecid, intraperitoneal. In kind it is in vivo, Sprague-Dawley rats. The settings on record: starting at 2 h after administration, vs NAC alone.
The format of data set [2] is in vivo, Sprague-Dawley rats. Conditions: differences from 1 h up to 4 h, vs NAC alone.

Take `CCCN(CCC)S(=O)(=O)c1ccc(C(=O)O)cc1` [probenecid]: the “effect of probenecid on NAC plasma concentrations” value in data set [1] is given as “increased significantly”. Further, the “effect of probenecid on NAC brain concentration-time profile” value in data set [2] is listed as “significantly increased”.

Source of the values: PMC5572076 (Xenobiotica; the fate of foreign compounds in biological …, 2016).
